Source: patent US20240024500A1, “ELECTROSTATIC NANOPARTICLES AND USE THEREOF” (Westfaelische Wilhelms-Universitaet Muenster, priority 2020, published 2024)

System: EGFR-negative SKNM-C-cell cultures
Experiment: Negative control: siRNA transport into EGFR-negative cells
Assay type: cell-based
Text: Whenever we performed negative control experiments, i.e. treating cells NOT expressing the EGF receptor with effective conjugates targeting the EGF receptor, we consequently observed extremely low cellular targeting efficiencies (FIG. 32 B), but we were intrigued by the accumulation of fluorescent micellar structures OUTSIDE the cells. These accumulations, probably attached to matrix-like structures on the treated dish surface, were only seen, if there was no target found on the cells to bind and internalize the conjugates. In addition, these accumulations were all of a similar size and, they had to be much larger than the approx. 10-20 nm, which would account for a monomer of one IgG plus several protamines plus eight attached siRNAs, because this size would not be detectable as a particle in fluorescent light microscopy, which approximately has a resolution of half of the emission wavelength, giving rise to particle sizes larger than 200 nm.

Uncoupled cetuximab: anti-EGFR monoclonal antibody cetuximab, not coupled to protamine
transport of Alexa488-control siRNA into EGFR-negative SKNM-C cells: does not transport
